Measured values taken from US20020049157A1, “Use of proteasome inhibitors for treating cancer, inflammation, autoimmune disease, graft rejection and septic shock” (priority 1998, published 2002).

Sequences of proteins named here, by UniProt entry; tags and fusion partners are left off. A change or cut given only in a name is not applied to a line headed by its entry.
UniProt P28075: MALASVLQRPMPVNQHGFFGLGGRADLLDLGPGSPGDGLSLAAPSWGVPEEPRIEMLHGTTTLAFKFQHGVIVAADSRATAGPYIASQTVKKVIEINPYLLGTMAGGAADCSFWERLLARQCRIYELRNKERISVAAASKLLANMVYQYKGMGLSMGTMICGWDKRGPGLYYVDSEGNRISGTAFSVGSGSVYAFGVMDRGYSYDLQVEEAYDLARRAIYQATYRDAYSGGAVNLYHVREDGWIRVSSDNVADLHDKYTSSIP

Molecular target: 20S proteasome (Rattus norvegicus, UniProt P28075)
Assay: Inhibition of chymotrypsin-like activity of 20S proteasome by DPBA (sLLVY-MCA)
Format: biochemical
Parameters: The 20S proteasome was purified from rat liver as described in the applicant's previous publication; from tissue; host or cells: rat liver
Settings: 20S proteasome from rat liver, 37° C. 30 min, read-out: IC50 for the inhibition of the chymotrypsin-like enzyme
Experimental: The 20S proteasome was purified from rat liver as described in the applicant's previous publication (1996, supra). A fluorogenic peptide sLLVY-MCA was used as a chymotrypsin substrate. DPBA of different concentrations was added into the reaction mix, and incubated at 37° C. for 30 min. The relative fluorescent intensity, which reflects the chymotrypsin-like enzymatic activity of the 20S proteasome, was measured with a fluorometer using excitation/emission wavelengths of 380 nm/440 nm.

Compound: CC(C)C[C@H](NC(=O)[C@H](Cc1ccccc1)NC(=O)c1cnccn1)B(O)O [DPBA, Pyz-Phe-boroLeu]
- IC50: ~20 nM
